In paper PMC11612176 (The EMBO Journal, 2024):

Target: T1, RadA (Streptococcus pneumoniae, UniProt A0A237IXT5)
T1 sequence (A0A237IXT5 1-453): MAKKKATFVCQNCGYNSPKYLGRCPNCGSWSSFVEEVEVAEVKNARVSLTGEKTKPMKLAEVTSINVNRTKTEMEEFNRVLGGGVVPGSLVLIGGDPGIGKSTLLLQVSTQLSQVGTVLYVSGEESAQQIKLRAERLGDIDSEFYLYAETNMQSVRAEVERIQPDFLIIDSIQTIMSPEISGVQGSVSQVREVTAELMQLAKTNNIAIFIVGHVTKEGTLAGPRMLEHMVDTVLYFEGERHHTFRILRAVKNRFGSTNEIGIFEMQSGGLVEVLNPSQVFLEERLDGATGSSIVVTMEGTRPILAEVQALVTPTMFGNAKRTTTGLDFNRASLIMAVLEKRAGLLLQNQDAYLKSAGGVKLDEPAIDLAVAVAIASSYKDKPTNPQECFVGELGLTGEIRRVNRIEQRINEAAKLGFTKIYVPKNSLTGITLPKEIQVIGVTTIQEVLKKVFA
Test: ATPase assay, pyruvate kinase / lactate dehydrogenase coupled NADH oxidation
Settings: 2 mM ATP, 4 mM magnesium acetate, pH 7.5, with or without ssDNA, 25, 37 or 42 °C

Nc1ncnc2c1ncn2[C@@H]1O[C@H](COP(=O)(O)OP(=O)(O)OP(=O)(O)O)[C@@H](O)[C@H]1O [ATP]
ATPase assay, pyruvate kinase / lactate dehydrogenase coupled NADH oxidation: The ATPase activity of RadA was determined using an ATP regeneration system
